{
  "sequences": {"note": "Chains of the proteins cited; added tags and fusions are not shown. Lines headed by an entry give the natural chain unless they say otherwise; changes in a name come on top.", "UniProt P09619": "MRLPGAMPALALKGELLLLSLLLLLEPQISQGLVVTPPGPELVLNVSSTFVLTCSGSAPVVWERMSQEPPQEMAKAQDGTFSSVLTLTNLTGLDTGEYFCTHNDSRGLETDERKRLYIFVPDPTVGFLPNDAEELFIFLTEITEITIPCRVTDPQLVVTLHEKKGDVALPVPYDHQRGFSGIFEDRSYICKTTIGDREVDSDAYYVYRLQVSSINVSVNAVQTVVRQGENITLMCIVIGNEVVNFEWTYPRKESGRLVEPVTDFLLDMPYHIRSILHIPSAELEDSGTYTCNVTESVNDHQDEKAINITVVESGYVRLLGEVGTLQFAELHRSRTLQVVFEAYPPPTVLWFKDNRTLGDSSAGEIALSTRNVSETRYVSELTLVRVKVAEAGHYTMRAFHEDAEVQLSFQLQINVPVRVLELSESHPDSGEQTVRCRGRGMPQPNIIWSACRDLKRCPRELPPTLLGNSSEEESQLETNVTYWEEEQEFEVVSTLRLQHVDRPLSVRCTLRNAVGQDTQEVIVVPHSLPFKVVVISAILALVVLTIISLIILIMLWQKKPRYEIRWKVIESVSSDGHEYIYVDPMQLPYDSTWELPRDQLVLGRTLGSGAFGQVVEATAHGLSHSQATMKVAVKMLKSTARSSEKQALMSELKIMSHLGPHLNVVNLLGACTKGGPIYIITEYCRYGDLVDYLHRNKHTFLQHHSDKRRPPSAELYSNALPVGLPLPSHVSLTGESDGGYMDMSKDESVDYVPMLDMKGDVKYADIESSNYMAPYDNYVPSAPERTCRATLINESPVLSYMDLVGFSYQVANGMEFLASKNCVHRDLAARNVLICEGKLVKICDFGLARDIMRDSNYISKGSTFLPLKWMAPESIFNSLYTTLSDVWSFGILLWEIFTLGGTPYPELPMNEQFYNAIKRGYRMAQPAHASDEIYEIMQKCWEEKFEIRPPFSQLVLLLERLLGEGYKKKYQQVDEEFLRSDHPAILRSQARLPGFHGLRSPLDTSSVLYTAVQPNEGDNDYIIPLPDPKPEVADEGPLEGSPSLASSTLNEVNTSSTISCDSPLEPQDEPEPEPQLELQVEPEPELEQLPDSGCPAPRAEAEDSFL"},
  "source": "patent US20240109917A1",
  "about": "(ACTELION PHARMACEUTICALS LTD, priority 2020, published 2024)",
  "data": [
    {"target": "His6-TEV-PDGFRβ (557-1016) (Homo sapiens (Human), UniProt P09619)", "test": "PDGFRβ HTRF Assay", "format": "biochemical", "settings": "read-out: PDGFR HTRF IC50", "description": "Instrumentation: a. Compound liquid handling: LabCyte Echo; b. Reagent liquid handling: Thermo Scientific Multidrop Combi; c. BMG PHERAStar multilabel plate reader.\nProtein Reagent: His6-TEV-PDGFRβ Protein Prep prepared at Accelagen.\nII. Methods and Procedures\nAssay buffer stock solution, contains 50 mM Hepes, 10 mM MgCl2, 1 mM EGTA, and 0.01% Brij-35, 0.01% ovalbumin, 2 mM DTT at pH 7.5, in molecular biology grade water. Store at room temperature.\nDTT, 2 M in molecular biology grade water, store at −20° C. in aliquots.\nOvalbumin, 10% or 100 mg/mL, prepare fresh on experimental day.\nPDGFRβ, 116 μM (PDGFRb_08 Prep 02), produced at Accelagen. Store at −80° C. in aliquots.\nTK-biotin peptide, […] in molecular biology grade water, store at −20° C. in aliquots.\nATP, 100 mM in molecular biology grade water, store at −20° C. in aliquots.\nHTRF KinEASE-TK kit: Allow the contents of the Cisbio kit to warm up to room temperature before use. This kit contains HTRF detection buffer, TK-Antibody labeled with Eu^3+-cryptate, TK-substrate biotin and Streptavidin-XL665.\nTK Substrate-Biotin, reconstitute 500 μg lyopholized with 574 μL molecular biology grade water to prepare a 500 μM stock; After use, aliquot the rest and store at −20° C.\nTK Antibody-Cryptate, reconstitute lyophilized with 1 mL of molecular biology grade water (100× solution) then add 99 mL detection buffer to prepare a ready to use TK-antibody-cryptate solution; the concentration of the TK-antibody-cryptate reagent is not known. After use, aliquot the rest and store at −20° C.\nStreptavidin-XL665, reconstitute 3 mg lyophilized with 3 mL molecular biology grade water to prepare a 1 mg/mL or 16.67 μM stock; MW=60 kDa; After use, aliquot the rest and store at −20° C.\nFreshly Prepared Solutions:\nAssay buffer. Dilute 5× Kinase buffer 5-fold with molecular biology grade water and add DTT to 2 mM and ovalbumin to 0.1 mg/mL (or 0.01%).\n2× protein solution. Make a working solution of […] PDGFRβ in assay buffer. Keep on ice until use to maintain enzyme stability.\n2× substrate solution. Make a working solution of 1.6 mM ATP and 1 μM TK-substrate biotin peptide in assay buffer.\n3× quench/detection solution. Make a working solution of 0.1875 μM SA-XL665 and the TK-antibody cryptate diluted by 12 of total quench/detection volume in assay buffer.\nKeep final streptavidin/biotin ratio at 1 to 8.\nExample of 3× quench/detection solution preparation: 8 mL total volume.\nTK antibody-cryptate in detection buffer—4000 μL […]\nStep 3. […] Read the plate in PHERAstar (or similar instrument) on HTRF setting at excitation 337 nm—dual emission—665/620 nm ratio. […]\nHTRF ratio values calculated by the instrument (Ratio is acceptor counts/donor counts*10,000) is exported from the plate reader and used in data analysis. […]", "units": {"IC50": "pM"}, "values": [
      {"smiles": "COc1ncccc1-c1cn2ncc(C(=O)Nc3cc(NC(=O)CN4CC(OC)C4)cnc3C)c2s1", "note": "[Example 400, N-(5-(2-(3-methoxyazetidin-1-yl)acetamido)-2-methylpyridin-3-yl)-2-(2-methoxypyridin-3-yl)pyrazolo[5,1-b]thiazole-7-carboxamide]", "IC50": 400},
      {"smiles": "COC1CCN(CC(=O)Nc2cnc(C)c(NC(=O)c3cnn4cc(-c5cn(C)nc5C)sc34)c2)C1", "note": "(stereo not shown) [Example 439, 2-(1,3-Dimethyl-1H-pyrazol-4-yl)-N-(5-(2-(3-methoxypyrrolidin-1-yl)acetamido)-2-methylpyridin-3-yl)pyrazolo[5,1-b]thiazole-7-carboxamide]", "IC50": 400},
      {"smiles": "Cc1ncc(NC(=O)CN2CCC[C@H]2C)cc1NC(=O)c1cnn2cc(-c3cn(C)nc3C)sc12", "note": "[Example 440, (R)-2-(1,3-dimethyl-1H-pyrazol-4-yl)-N-(2-methyl-5-(2-(2-methylpyrrolidin-1-yl)acetamido)pyridin-3-yl)pyrazolo[5,1-b]thiazole-7-carboxamide]", "IC50": 400},
      {"smiles": "Cc1ncc(NC(=O)CN2CCC[C@@H]2C)cc1NC(=O)c1cnn2cc(-c3cn(C)nc3C)sc12", "note": "[Example 438, (S)-2-(1,3-dimethyl-1H-pyrazol-4-yl)-N-(2-methyl-5-(2-(2-methylpyrrolidin-1-yl)acetamido)pyridin-3-yl)pyrazolo[5,1-b]thiazole-7-carboxamide]", "IC50": 400}
    ]}
  ]
}
